## Reported water solubility values for industrial, environmental and drug-like chemicals

Data: OPERA 2.9 data sets, kmansouri/OPERA on GitHub.

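OPERA's authors assembled the values from existing databases and did not measure them anew. One number stands for a compound and property, with no spread given. Method and conditions are not stated for these values. The measured form (salt, isomer or mixture) is not always the one drawn. Unmarked limits or estimates from the upstream databases cannot be ruled out.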

Water solubility is log10 of mol/L, nominally at 25 °C; higher is more soluble.

Listed for CC(=O)OCCOc1ccccc1 [2-Phenoxyethyl acetate]: log S -1.977 (log10 mol/L). The entry for CCCN1CCCC[C@H]1C(=O)Nc1c(C)cccc1C [Ropivacaine] lists log S -3.035 (log10 mol/L). The entry for CC(=O)[C@@]1(O)CC[C@H]2[C@@H]3C=C(Cl)C4=CC(=O)[C@@H]5C[C@@H]5[C@]4(C)[C@H]3CC[C@@]21C [Cyproterone] lists log S -4.751 (log10 mol/L). For CC(O)(C(=O)O)c1ccccc1 (stereo not given) [Atrolactic acid] the data give log S -0.893 (log10 mol/L).

The entry for OCc1c(CO)c(CO)c(CO)c(CO)c1CO [(Benzene-1,2,3,4,5,6-hexayl)hexamethanol] lists log S -2.6 (log10 mol/L). Listed for Nc1[nH]c(=O)ncc1I [5-Iodocytosine]: log S -2.4 (log10 mol/L). CC(C)NCC(O)COc1cccc2[nH]ccc12 (stereo not given) [Pindolol] has log S -3.676 (log10 mol/L). Listed for O=c1c(-c2ccc(O)c(O)c2)coc2cc(O[C@@H]3O[C@H](CO)[C@@H](O)C(O)[C@H]3O)cc(O)c12 (some centres not stated): log S -3.652 (log10 mol/L).

O=C=Nc1ccc(N=C=O)cc1 [1,4-Diisocyanatobenzene] has log S -2.647 (log10 mol/L). Listed for COC1=CC(=CNNC(N)=O)C=CC1=O: log S -3.542 (log10 mol/L). Listed for CC(C)C[C@H](N)C(=O)N[C@H](CSSC[C@@H](NC(=O)[C@@H](N)CC(C)C)C(=O)O)C(=O)O: log S -0.479 (log10 mol/L). For COC(CNC(=O)N(CCCl)N=O)n1c(=O)[nH]cc(F)c1=O (stereo not given) the data give log S -1.926 (log10 mol/L).

For COc1cc(-c2ccc(/N=N/c3ccc4c(S(=O)(=O)[O-])cc(S(=O)(=O)[O-])c(N)c4c3O)c(OC)c2)ccc1/N=N/c1ccc2c(S(=O)(=O)[O-])cc(S(=O)(=O)[O-])c(N)c2c1O.[Na+].[Na+].[Na+].[Na+] [C.I. Direct Blue 1] the data give log S -1.395 (log10 mol/L). CCCCCC(O)=NCCN=C(O)CCCCC [N,N'-(Ethane-1,2-diyl)dihexanimidic acid] is reported with log S -3.11 (log10 mol/L). The entry for CCCCC(C(=O)O)C(=O)O lists log S 0.438 (log10 mol/L). The entry for CCCCCCCCCCCCOC(=O)CS(=O)(=O)[O-].[Na+] [Sodium 2-(dodecyloxy)-2-oxoethane-1-sulphonate] lists log S -0.975 (log10 mol/L).

NN(CC(=O)O)CC(=O)O [Acetic acid, 2,2'-hydrazinylidenebis-] is reported with log S -1.723 (log10 mol/L). For ONc1ncnc2[nH]cnc12 [N-Hydroxy-9H-purin-6-amine] the data give log S -2.4 (log10 mol/L). The entry for CCCCCCCC[N+](CCCCCCCC)(CCCCCCCC)CCCCCCCC.[Br-] [Tetra-N-octylammonium bromide] lists log S -4.276 (log10 mol/L). COc1cc([N+](=O)[O-])ccc1N [2-Methoxy-4-nitroaniline] has log S -3.205 (log10 mol/L).

COc1ccc(/C=N/NC(N)=S)cc1O[C@@H]1O[C@H](CO)[C@@H](O)[C@H](O)[C@H]1O has log S -2.889 (log10 mol/L). CCCCOCCOCCOCCOC(=O)CCCC(=O)OCCOCCOCCOCCCC [Bis(2-(2-(2-butoxyethoxy)ethoxy)ethyl) hydrogen glutarate] is reported with log S -6.007 (log10 mol/L). The entry for CCOC(COC)OC (stereo not given) [1-Ethoxy-1,2-dimethoxyethane] lists log S 0.88 (log10 mol/L). Listed for CC(C)(Sc1cc(C(C)(C)C)c(O)c(C(C)(C)C)c1)Sc1cc(C(C)(C)C)c(O)c(C(C)(C)C)c1 [Probucol]: log S -7.092 (log10 mol/L).

For C=C(C)CCC the data give log S -3.03 (log10 mol/L). The entry for Cc1c(NC(=O)Nc2ccccc2)c(=O)n(-c2ccccc2)n1C lists log S -2.304 (log10 mol/L). For O=S(=O)([O-])c1cc(S(=O)(=O)[O-])c2c(/N=N/c3ccccc3)c(O)ccc2c1.[Na+].[Na+] [C.I. Acid Orange 10] the data give log S -0.752 (log10 mol/L). The entry for Cc1cc(NC(=N)O)ccc1F [(4-FLUORO-3-METHYLPHENYL)UREA] lists log S -1.79 (log10 mol/L).

CC(=NO)C(F)(F)F [1,1,1-Trifluoro-acetone oxime] is reported with log S -0.229 (log10 mol/L). CS(=O)(=O)c1ccc(C(=O)O)c(Cl)c1 [Benzoic acid, 2-chloro-4-(methylsulfonyl)-] has log S -0.592 (log10 mol/L). COc1cc(N)c2c(c1N)C(=O)c1ccccc1C2=O has log S -5.75 (log10 mol/L). The entry for Cc1cc(-c2ccccc2)nnc1NCCN1CCOCC1 [Minaprine] lists log S -3.629 (log10 mol/L).

CCN(CC)C(=O)CCC(=O)OCn1ncc2c(O)ncnc21 has log S -0.988 (log10 mol/L). CCCC(C(C)=O)C(C)=O [3-Propylpentane-2,4-dione] has log S -0.88 (log10 mol/L). O=C(O)c1cc(=O)c2c(OCC(O)COc3cccc4oc(C(=O)O)cc(=O)c34)cccc2o1 [Cromolyn] is reported with log S -4.117 (log10 mol/L). COc1cc(OC)n2nc(NS(=O)(=O)c3c(C(F)(F)F)ccnc3OC)nc2n1 [Pyroxsulam] has log S -2.13 (log10 mol/L).

OCc1c2ccccc2cc2ccccc12 has log S -3.921 (log10 mol/L). O=C(O)c1ccccc1C(=O)OCCOC(=O)c1ccccc1C(=O)O [2,2'-[1,2-Ethanediylbis(oxycarbonyl)]dibenzoic acid] has log S -2.828 (log10 mol/L). Listed for O=C(O)c1ccc(Br)o1 [5-Bromo-2-furanecarboxylic acid]: log S -1.939 (log10 mol/L). For O=C(NOC(=O)c1ccco1)c1ccco1 [N-[(Furan-2-carbonyl)oxy]furan-2-carboxamide] the data give log S -1.972 (log10 mol/L).

The first 6 entries again:

CC(=O)OCCOc1ccccc1 [2-Phenoxyethyl acetate] is reported with log S -1.977 (log10 mol/L).
CCCN1CCCC[C@H]1C(=O)Nc1c(C)cccc1C [Ropivacaine] is reported with log S -3.035 (log10 mol/L).
CC(=O)[C@@]1(O)CC[C@H]2[C@@H]3C=C(Cl)C4=CC(=O)[C@@H]5C[C@@H]5[C@]4(C)[C@H]3CC[C@@]21C [Cyproterone] is reported with log S -4.751 (log10 mol/L).
CC(O)(C(=O)O)c1ccccc1 (stereo not given) [Atrolactic acid] is reported with log S -0.893 (log10 mol/L).
OCc1c(CO)c(CO)c(CO)c(CO)c1CO [(Benzene-1,2,3,4,5,6-hexayl)hexamethanol] is reported with log S -2.6 (log10 mol/L).
Nc1[nH]c(=O)ncc1I [5-Iodocytosine] is reported with log S -2.4 (log10 mol/L).